Values quoted from earlier work as cited in patent US20190015396A1, “VMAT2 INHIBITORS FOR TREATING NEUROLOGICAL DISEASES OR DISORDERS” (Neurocrine Biosciences, Inc., priority 2015, published 2019).

Sequences of proteins named here, by UniProt entry; tags and fusion partners are left off.
UniProt Q05940, whole entry, species assumed: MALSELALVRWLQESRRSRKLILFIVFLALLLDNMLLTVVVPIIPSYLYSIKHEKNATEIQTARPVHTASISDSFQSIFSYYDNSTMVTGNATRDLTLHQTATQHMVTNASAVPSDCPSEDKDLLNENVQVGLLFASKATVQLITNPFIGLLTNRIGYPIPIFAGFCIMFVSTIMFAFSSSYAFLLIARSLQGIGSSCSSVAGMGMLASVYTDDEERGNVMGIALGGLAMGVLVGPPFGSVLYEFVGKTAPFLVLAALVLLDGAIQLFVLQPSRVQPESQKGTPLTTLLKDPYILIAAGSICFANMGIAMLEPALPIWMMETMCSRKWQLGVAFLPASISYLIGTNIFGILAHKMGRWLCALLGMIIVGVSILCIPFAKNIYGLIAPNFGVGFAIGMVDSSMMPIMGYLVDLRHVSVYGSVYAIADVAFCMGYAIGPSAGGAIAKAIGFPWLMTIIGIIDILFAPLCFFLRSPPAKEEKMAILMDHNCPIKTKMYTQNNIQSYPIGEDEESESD

Molecular target: VMAT2 (Homo sapiens, UniProt Q05940)
Conditions: radioligand, American Radiolabeled Chemicals; tissue not stated

Substance: 3H-dihydrotetrabenazine
- Kd: 2.6 nM
